# From ChEMBL document CHEMBL4020831, “Discovery of GDC-0853: A Potent, Selective, and Noncovalent Bruton's Tyrosine Kinase Inhibitor in Early Clinical Development” (J Med Chem, 2018)
# Amino acid sequences for entries named in this document (tags omitted). Residues count along the entry.
# UniProt Q06187, 2-659 C481S limits assumed: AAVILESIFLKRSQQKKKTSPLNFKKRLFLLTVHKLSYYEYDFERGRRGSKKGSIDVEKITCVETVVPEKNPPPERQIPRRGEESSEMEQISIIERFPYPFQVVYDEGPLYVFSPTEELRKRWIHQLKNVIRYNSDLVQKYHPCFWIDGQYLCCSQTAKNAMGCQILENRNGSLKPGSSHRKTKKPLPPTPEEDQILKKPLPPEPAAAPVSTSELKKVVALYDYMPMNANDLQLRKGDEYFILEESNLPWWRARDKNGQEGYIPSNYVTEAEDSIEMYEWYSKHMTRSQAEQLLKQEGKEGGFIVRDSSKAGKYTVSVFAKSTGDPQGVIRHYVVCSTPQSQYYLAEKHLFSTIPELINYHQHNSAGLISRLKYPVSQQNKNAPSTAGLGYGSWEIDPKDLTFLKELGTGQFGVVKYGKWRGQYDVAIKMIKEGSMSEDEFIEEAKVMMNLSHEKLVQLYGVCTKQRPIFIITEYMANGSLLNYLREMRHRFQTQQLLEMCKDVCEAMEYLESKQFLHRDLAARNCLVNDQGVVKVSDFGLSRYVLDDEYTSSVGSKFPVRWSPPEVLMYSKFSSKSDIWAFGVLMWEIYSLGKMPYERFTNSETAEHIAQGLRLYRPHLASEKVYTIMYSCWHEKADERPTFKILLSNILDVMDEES
# UniProt Q06187, 2-659 T474I limits assumed: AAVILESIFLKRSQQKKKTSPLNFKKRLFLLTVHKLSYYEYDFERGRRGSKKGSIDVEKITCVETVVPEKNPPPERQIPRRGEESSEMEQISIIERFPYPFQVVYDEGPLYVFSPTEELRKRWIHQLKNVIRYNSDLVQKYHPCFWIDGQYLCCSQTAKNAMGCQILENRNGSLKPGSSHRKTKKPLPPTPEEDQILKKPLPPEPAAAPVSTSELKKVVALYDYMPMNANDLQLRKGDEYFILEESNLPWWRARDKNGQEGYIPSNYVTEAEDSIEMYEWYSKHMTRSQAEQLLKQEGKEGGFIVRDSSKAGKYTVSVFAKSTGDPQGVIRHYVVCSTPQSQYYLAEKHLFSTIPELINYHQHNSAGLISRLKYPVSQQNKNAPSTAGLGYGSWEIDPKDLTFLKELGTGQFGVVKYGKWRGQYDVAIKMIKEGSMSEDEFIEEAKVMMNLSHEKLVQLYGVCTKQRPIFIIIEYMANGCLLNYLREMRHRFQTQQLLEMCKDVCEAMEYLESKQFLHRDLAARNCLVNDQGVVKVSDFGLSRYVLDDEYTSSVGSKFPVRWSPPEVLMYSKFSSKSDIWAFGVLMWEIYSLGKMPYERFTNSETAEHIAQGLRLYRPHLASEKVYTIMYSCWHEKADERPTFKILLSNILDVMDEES
# UniProt Q06187, 2-659 T474M limits assumed: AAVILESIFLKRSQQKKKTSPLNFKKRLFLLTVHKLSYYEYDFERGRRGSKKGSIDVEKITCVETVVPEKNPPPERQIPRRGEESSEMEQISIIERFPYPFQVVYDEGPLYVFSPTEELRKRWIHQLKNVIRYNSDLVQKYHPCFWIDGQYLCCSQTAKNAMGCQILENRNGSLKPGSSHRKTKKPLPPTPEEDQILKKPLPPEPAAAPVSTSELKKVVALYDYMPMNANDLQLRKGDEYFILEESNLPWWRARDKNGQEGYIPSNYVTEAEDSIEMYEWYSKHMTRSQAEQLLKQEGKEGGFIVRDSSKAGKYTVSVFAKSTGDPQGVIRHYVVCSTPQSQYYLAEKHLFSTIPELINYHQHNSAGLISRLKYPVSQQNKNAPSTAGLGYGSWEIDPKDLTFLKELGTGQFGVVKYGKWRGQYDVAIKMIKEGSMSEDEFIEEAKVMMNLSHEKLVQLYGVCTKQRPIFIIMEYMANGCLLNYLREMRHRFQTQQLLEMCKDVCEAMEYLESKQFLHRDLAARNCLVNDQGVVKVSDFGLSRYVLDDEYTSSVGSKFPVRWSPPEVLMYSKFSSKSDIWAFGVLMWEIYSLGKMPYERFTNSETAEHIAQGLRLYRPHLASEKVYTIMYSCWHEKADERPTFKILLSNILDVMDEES
# How the values were obtained:
# Assay type in all cases: cell-based
# [1] = molecular target: Tyrosine-protein kinase BTK (Homo sapiens, UniProt Q06187, C481S); experiment: Inhibition of BTK C481S mutant (unknown origin) expressed in HEK293 cells
# [2] = molecular target: Tyrosine-protein kinase BTK (Homo sapiens, UniProt Q06187, T474I); experiment: Inhibition of BTK T474I mutant (unknown origin) expressed in HEK293 cells
# [3] = molecular target: Tyrosine-protein kinase BTK (Homo sapiens, UniProt Q06187, T474M); experiment: Inhibition of BTK T474M mutant (unknown origin) expressed in HEK293 cells
compound,measurement,setting,value
C[C@H]1CN(C2COC2)CCN1c1ccc(Nc2cc(-c3ccnc(N4CCn5c(cc6c5CC(C)(C)C6)C4=O)c3CO)cn(C)c2=O)nc1 [FENEBRUTINIB],Ki,[1],1.6 nM
same,Ki,[2],12.6 nM
same,Ki,[3],3.4 nM
